What all share (format): cell-based
For assay [1], the system named is von Hippel-Lindau disease tumor suppressor/Epidermal growth factor receptor (Homo sapiens), P00533+P40337 [UNDEFINED MUTATION]. The assay is described as follows: Protac activity at VHL/EGFR exon 19 deletion mutant in human HCC827 cells assessed as induction of EGFR degradation at >=50 nM treated 8 hrs post serum starvation measured after 16 hrs by Western blot analysis relative to control.

Sequences of proteins named here, by UniProt entry; tags and fusion partners are left off.
von Hippel-Lindau disease tumor suppressor/Epidermal growth factor receptor (Homo sapiens), P00533+P40337, UniProt P40337, whole entry, looked up, stated change not applied: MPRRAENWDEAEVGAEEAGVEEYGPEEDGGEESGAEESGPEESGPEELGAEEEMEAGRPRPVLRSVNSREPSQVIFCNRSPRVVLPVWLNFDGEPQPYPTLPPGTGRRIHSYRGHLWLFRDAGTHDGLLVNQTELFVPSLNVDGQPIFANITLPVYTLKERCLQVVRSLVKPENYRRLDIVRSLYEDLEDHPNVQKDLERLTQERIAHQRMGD

Assay [2] has as its system von Hippel-Lindau disease tumor suppressor/Epidermal growth factor receptor (Homo sapiens), P00533+P40337 [L858R]. The assay is described as follows: Protac activity at VHL/EGFR L858R mutant in human H3255 cells assessed as reduction in EGFR autophosphorylation up to 10 uM treated 8 hrs post serum starvation measured after 16 hrs by Western blot analysis. The gist of the method:
(§1)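 Cultured to 80% confluence in RPMI/1640 with 20% FBS at 37 °C and 5% CO2, then switched to serum-free medium for 8 h. Degraders were added over a concentration range up to 10 μM for 16 h, with gefitinib at 1 μM as reference. Lysates in Laemmli buffer were immunoblotted for EGFR, p-EGFR and p-AKT. DC50 came from band quantification by nonlinear regression (variable slope).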
Background: A western blot detects proteins with antibodies after separation by electrophoresis.

Assay [3] concerns von Hippel-Lindau disease tumor suppressor/Epidermal growth factor receptor (Homo sapiens), P00533+P40337 [UNDEFINED MUTATION]. Description: Protac activity at VHL/EGFR exon 19 deletion mutant in human HCC827 cells assessed as reduction in AKT phosphorylation up to 10 uM treated 8 hrs post serum starvation measured after 16 hrs by Western blot analysis. The gist of the method:
as §1

For assay [4] the test system is unchanged. The assay is described as follows: Protac activity at VHL/EGFR exon 19 deletion mutant in human HCC827 cells assessed as reduction in EGFR autophosphorylation up to 10 uM treated 8 hrs post serum starvation measured after 16 hrs by Western blot analysis. An outline of the steps:
as §1

The subject of assay [5] is von Hippel-Lindau disease tumor suppressor/Epidermal growth factor receptor (Homo sapiens), P00533+P40337 [L858R]. Description: Protac activity at VHL/EGFR L858R mutant in human H3255 cells assessed as reduction in AKT phosphorylation up to 10 uM treated 8 hrs post serum starvation measured after 16 hrs by Western blot analysis. The gist of the method: as §1
The test system of assay [6] is Epidermal growth factor receptor (Homo sapiens), P00533 [UNDEFINED MUTATION]. Description: Induction of EGFR exon 19 deletion mutant degradation in human HCC827 cells up to 100 nM treated 8 hrs post serum starvation measured after 16 hrs by Western blot analysis.
The subject of assay [7] is Epidermal growth factor receptor (Homo sapiens), P00533 [L858R]. The assay is described as follows: Induction of EGFR L858R degradation in human H3255 cells assessed as reduction in ATK phosphorylation up to 100 nM treated 8 hrs post serum starvation measured after 16 hrs by Western blot analysis.
Assay [8] shares this test system. The assay is described as follows: Induction of EGFR L858R degradation in human H3255 cells up to 100 nM treated 8 hrs post serum starvation measured after 16 hrs by Western blot analysis.
For assay [9], the system named is Epidermal growth factor receptor (Homo sapiens), P00533 [UNDEFINED MUTATION]. Description: Induction of EGFR exon 19 deletion mutant degradation in human HCC827 cells assessed as reduction in AKT phosphorylation up to 100 nM treated 8 hrs post serum starvation measured after 16 hrs by Western blot analysis.
Assay [10] has as its system Epidermal growth factor receptor (Homo sapiens), P00533 [L858R]. Description: Induction of EGFR L858R degradation in human H3255 cells assessed as reduction in EGFR autophosphorylation up to 100 nM treated 8 hrs post serum starvation measured after 16 hrs by Western blot analysis.
The test system of assay [11] is Epidermal growth factor receptor (Homo sapiens), P00533 [UNDEFINED MUTATION]. Description: Induction of EGFR exon 19 deletion mutant degradation in human HCC827 cells assessed as reduction in EGFR autophosphorylation up to 100 nM treated 8 hrs post serum starvation measured after 16 hrs by Western blot analysis.

Molecules are shown by their SMILES. Calls of active or inactive are those of the source. No cut-off for these calls is given here.

`COc1cc2ncnc(Nc3ccc(F)c(Cl)c3)c2cc1OCCCN1CCN(C(=O)CCCCCCCCCC(=O)N[C@H](C(=O)N2C[C@H](O)C[C@H]2C(=O)NCc2ccc(-c3scnc3C)cc2)C(C)(C)C)CC1`: the %max in [1] is greater than 95%. For the same compound, the result in [2], in assay [3], in assay [4] and in [5] was Active.

As to `COc1cc2ncnc(Nc3ccc(F)c(Cl)c3)c2cc1OCCCN1CCN(C(=O)CCCCCCCCCC(=O)N[C@H](C(=O)N2C[C@@H](O)C[C@@H]2C(=O)NCc2ccc(-c3scnc3C)cc2)C(C)(C)C)CC1`, the outcome in assay [6] and in assay [8] was inactive. Also, the result in [7], in [9], in assay [10] and in assay [11] was Active.

These data come from ChEMBL document CHEMBL4376874, “Discovery of Potent and Selective Epidermal Growth Factor Receptor (EGFR) Bifunctional Small-Molecule Degraders” (J Med Chem, 2020).
